According to PubChem BioAssay AID602449 (Sanford-Burnham Center for Chemical Genomics, 2012):
Only a part is listed here, and it is no random draw. Calls of active or inactive are those of the source.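 Rule for the calls: active = inhibition of 50% or more, scaled per plate between neutral and stimulator controls; inactive = the rest.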

test: mitochondrial permeability transition pore inhibitors, primary screen, biochemical, isolated mouse mitochondria, absorbance (AID 602449); settings: Ca2+ swelling absorbance, 30 min, at 10 µM, active compounds read high;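 note: 0% = DMSO wells given calcium and 100% = 1 mM EGTA wells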

| SMILES | inhibition |
| --- | --- |
| CCn1cc(C(=O)O)c(=O)c2cc(F)c(N3CCNCC3)nc21 | inactive: -1.1% |
| CCOP1(=S)c2c(C)nn(CCC#N)c2N=C(c2ccccc2F)N1C (stereo unspecified) | inactive: 0.9% |
| O=P(Nc1nccs1)(c1ccccc1)c1nc2ccccc2s1 (stereo unspecified) | inactive: -3.8% |
| O=P(Nc1nccs1)(Oc1ccccc1)Oc1ccccc1 | inactive: -1.1% |
| CS(=O)(=O)c1cc([N+](=O)[O-])c2no[n+]([O-])c2c1 | inactive: 26.1% |
| Nc1ccccc1[As](=O)(O)c1ccccc1 | inactive: -0.3% |
| O=C(O)COc1ccc([As](=O)(O)O)cc1[N+](=O)[O-] | inactive: 0.3% |
| Cc1ccc(NCCc2c([N+](=O)[O-])cc([N+](=O)[O-])cc2[N+](=O)[O-])cc1 | inactive: 22.7% |
| Nc1cccc2c([As](=O)(O)O)cccc12 | inactive: 0.2% |
| CCCOP(=S)(Nc1nc(N)cc(=O)[nH]1)OCCC | inactive: -0.6% |
| COc1cc(C2NCCC3(OCCO3)C2(C)C)cc(OC)c1OC (stereo unspecified) | inactive: 21% |
| CCOP(=O)(Nc1cccc2ccccc12)OCC | inactive: 2.2% |
| O=C(OC1CN2CCC1CC2)c1ccc(Cl)cc1 (stereo unspecified) | inactive: 0.6% |
| COc1cc(C(=O)NCC2(N3CCOCC3)CCCCC2)cc(Cl)c1OC(C)C | inactive: 0.4% |
| O=[As](O)(O)c1cccnc1 | inactive: 0.9% |
| CS(=O)(=O)c1ccc(Cl)c(NC(=O)COC(=O)C(O)(c2ccccc2)c2ccccc2)c1 | inactive: 0.2% |
| O=[As](O)(c1cccc(O)c1)c1cccc(O)c1 | inactive: 1.1% |
| Cc1cccc(OCC(=O)OC2CN3CCC2CC3)c1 (stereo unspecified) | inactive: -1.5% |
| COc1ccccc1CNC(=O)COC(=O)C(O)(c1ccccc1)c1ccccc1 | inactive: -0.1% |
| CC(C)/C=N\N=C(\N)N[N+](=O)[O-] | inactive: 3% |
| CN(C(=O)Cc1ccc(Cl)c(Cl)c1)[C@@H]1CCCC[C@H]1N1CCCC1 | inactive: 27.9% |
| CC1(CBr)Cn2c(nc3ccccc3c2=O)S1 (stereo unspecified) | inactive: -2.1% |
| O=P1(Nc2ccccn2)COc2ccccc2OC1 | inactive: -1.4% |
| CCC1=CC2Cc3nc4ccc(Cl)cc4c(N)c3C(C1)C2 (stereo unspecified) | active: 83.2% |
| CCOP(=O)(NC(=NC(C)c1ccccc1)NC(C)c1ccccc1)OCC (stereo unspecified) | inactive: -1.6% |
| CN(CCCl)Cc1cc(Cl)c(NC2=NCCN2)c(Cl)c1 | inactive: -4.1% |

| SMILES | inhibition |
| --- | --- |
| CCOP(=O)(Nc1ccc(C)cn1)OCC | inactive: 0.3% |
| O=P1(N(CCCl)CCCl)NCCC(C(F)(F)F)O1 (stereo unspecified) | inactive: 0.8% |
| Clc1n[nH]nc1-c1nn[nH][15n]1 | inactive: -1.6% |
| CC(C)(C)C(=O)NC(Sc1ncccn1)C(Cl)(Cl)Cl (stereo unspecified) | inactive: -0.6% |
| Cc1ccc(S(=O)(=O)N(CCCN)CCCc2c(C)nc(N)[nH]c2=O)cc1 | inactive: -2.2% |
| O=P1(Nc2ncccn2)COc2ccccc2OC1 | inactive: 0.7% |
| Nc1cccc([As](=O)(O)c2ccccc2)c1 | inactive: -0.2% |
| O=P1(Nc2ccc(Br)cn2)COc2ccccc2OC1 | inactive: 1.8% |
| NS(=O)(=O)c1cccc(NC(=O)COC(=O)C(O)(c2ccccc2)c2ccccc2)c1 | inactive: -0.4% |
| Cc1ccc(OCC(=O)OC2CN3CCC2CC3)cc1 (stereo unspecified) | inactive: 0.5% |
| O=[As](O)(c1cccs1)c1cccs1 | inactive: -0.7% |
| Cc1nn(-c2ccccc2)c2c1P(=O)(N1CCOCC1)N(C)C(c1ccccc1)=N2 (stereo unspecified) | inactive: -0.6% |
| CC1CCC(C(C)C)C(OP(=O)(Nc2ccccn2)c2ccccc2)C1 (stereo unspecified) | inactive: -3.4% |
| Cc1ccc(C(=O)OC2CN3CCC2CC3)cc1 (stereo unspecified) | inactive: -0.3% |
| CCOc1ccccc1O[C@H](c1ccccc1)[C@H]1CNCCO1 | inactive: 3.9% |
| CN(C)C1(CNC(=O)c2ccc(S(C)(=O)=O)cc2)CCCCC1 | inactive: 0.6% |
| O=C(/C=C/c1ccccc1)OC1CN2CCC1CC2 (stereo unspecified) | inactive: 1.7% |
| CCCC1OP(=O)(Nc2ccccc2)OCC1CC (stereo unspecified) | inactive: 1.7% |
| O=[As](O)(c1ccccc1)c1ccc(O)cc1 | inactive: 0% |
| O=[N+]([O-])c1ccc(O)c(/C=N/Nc2ccc([N+](=O)[O-])cc2[N+](=O)[O-])c1 | active: 95% |
| CC(=O)NC(SC(=S)N(C)C)C(Cl)(Cl)Cl (stereo unspecified) | inactive: 0.1% |
| O=[N+]([O-])c1ncn(CCn2cnc([N+](=O)[O-])n2)n1 | inactive: 0.6% |
| Cn1c(=O)c2[nH]cnc2n(C)c1=O | inactive: 2.1% |
| O=C(OC1CN2CCC1CC2)c1cccc(Cl)c1 (stereo unspecified) | inactive: -1.2% |
| Nc1ccc([As](=O)(O)c2ccc([N+](=O)[O-])cc2)cc1 | inactive: 1% |
